The values that follow come from patent publication US20100137419A1, “ANTI-CANCER AGENT” (WAN STATION CO., LTD., priority 2006, published 2010).

Data set [1] in a line: solubility of the rotaxane compound. Type of data set: physicochemical.
In data set [2] the test system is mRNA expression of Bcl-2, Bax, Bad and Caspase-3. In kind it is cell-based. As to the method:
The mRNA expression of an apoptosis-resistant gene Bcl-2, the mRNA expression of apoptosis-promoting genes Bax and Bad, and the mRNA expression of a cell death-executing gene Caspase-3 were analyzed based on ordinary β-actin proteins. The obtained results were compared with those of the conventional anti-cancer agent 5-FU. After extraction of total RNA, each mRNA expression was examined by a PCR (polymerase chain reaction) method. Each sample was electrophoresed by agarose gel electrophoresis, and fluorescence was then measured. Thereafter, the fluorescence ratio of each sample with a sample (a control), in which no anti-cancer agents were used, was obtained.

Regarding “[2][bis (2-(3,5-dimethylphenylcarbonyloxy)ethyl) ammonium trifluoromethanesulfonate]-[dibenzo-24-crown-8] rotaxane”, the “solubility in organic solvent” value in data set [1] (organic solvent) is listed as “organic-solvent-soluble”. The “solubility in dimethyl sulfoxide (DMSO)” value in data set [1] (solvent such as DMSO) was “can be dissolved”. Further, the solubility in water result in data set [1] (water) is recorded as “water-insoluble”. The “anti-cancer action compared with conventional anti-cancer agent 5-FU” value in data set [2] is reported as “stronger than the conventional anti-cancer agent”. The “fluorescence ratio of mRNA expression (Bcl-2, Bax, Bad, Caspase-3) to control without anti-cancer agent” value in data set [2] (based on β-actin, applied amount of rotaxane one-tenth or less of that of 5-FU (FIG. 5)) is given as “approximately similar to 5-FU”.
